The target of this test is T1, Concanavalin A (Con A) (Canavalia ensiformis, UniProt P02866).
T1 construct: purchased Sigma
Format: binding. The following applies: pH 6.8; read-out: Dissociation constants (KD) for the interaction. The procedure:
Fluorescence spectra were recorded with a Shimadzu spectrofluorometer (Japan). The emission spectra of the tryptophan residues were recorded in a 1-cm quartz cell (Hellma Analytics, Germany). To avoid the measurement of the Tyr emission, the protein sample was excited at λ=295 nm with a slit width of 1.0 nm. Total fluorescence was calculated after the normalization of the fluorescence spectra and correction for dilution. In order to normalize the inner filter and self-absorption effects, the excitation was always carried out less than 0.05 OD. The spectra were recorded in a wavelength range of 300–500 nm. All studies were done at 25°C with the temperature of the samples measured in the cuvette with an accuracy of ± 0.2°C.
The protein-ligand interactions were investigated by monitoring changes in the intrinsic protein fluorescence emission (θexc=295 nm). We applied ideal fluorescence titration and incubation methods for their intrinsic sensitivity and simplicity. For this purpose, Con A (1.8 µM) was incubated at 4°C overnight with increasing concentrations of MnTMPyP, ZnTPPS, and FeTMPyP. […] Applied porphyrin concentrations were consistent with minimizing artifacts due to aggregation phenomena. Con A-adenine interactions were studied by overnight incubation (at 4°C). […]

As for “5,10,15,20-Tetrakis(4-sulfonatophenyl)-porphyrin-Au(III)chloride [AuTPPS]”, the Kd is 490 ± 290 nM.

(Values after article PMC4475797, “New Activity of a Protein from Canavalia ensiformis” (Scientia Pharmaceutica, 2014).)
